Reference: PubChem BioAssay AID1663 (Broad Institute, 2009)
The list shows a part of the results, in another mix than the full data. Activity calls are given as the source filed them.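 Rule for the calls: active = mean replicate score, as percent of positive control, at or above 50; inconclusive = mean below 50 but at least one replicate at or above 50; inactive = mean and every replicate below 50.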

assay: inhibitors of platelet dense granule secretion, primary screen, cell-based, MLPCN, human platelets (AID 1663); conditions: human platelet-rich plasma, SFLLRN dense granule ATP release, luminescence; active compounds read high;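 compounds screened at 7.5 µM in platelet-rich plasma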

| SMILES | inhibition |
| --- | --- |
| O=[N+]([O-])c1cc([N+](=O)[O-])c(Nc2nnnn2CCO)c([N+](=O)[O-])c1 | inactive: 1.54% |
| CCOC(=O)C(CC)C1=NC(C)(C)Cc2ccccc21.O=[N+]([O-])c1cc([N+](=O)[O-])c(O)c([N+](=O)[O-])c1 (centres undefined) | inactive: -1.59% |
| CN1CCCCC1COC(=O)C1(O)c2ccccc2CCc2ccccc21 (centres undefined) | inactive: -6.84% |
| COc1ccccc1OP(C)(=O)Nc1c(C)cccc1C (centres undefined) | inactive: 1.04% |
| CP(=O)(Nc1ccc(SC(F)(F)F)cc1)Oc1ccccc1 (centres undefined) | inactive: -4.86% |
| CCCOc1ccc(NP(C)(=O)Oc2ccc(Cl)cc2)cc1 (centres undefined) | inactive: 1.41% |
| O=[N+]([O-])c1cc([N+](=O)[O-])c(-n2nnc3ccccc32)c([N+](=O)[O-])c1 | inactive: 0.323% |
| O=[N+]([O-])c1cc([N+](=O)[O-])c(-c2cnn(-c3ccccc3)c2)c([N+](=O)[O-])c1 | inactive: -15% |
| COc1ccccc1OP(C)(=O)Nc1cccc(Br)c1 (centres undefined) | inactive: -4.18% |
| Cc1cc(C)cc(OP(C)(=O)Nc2ccc(C)cc2C)c1 (centres undefined) | inactive: -0.699% |
| CCOC(=O)c1ccc(NP(C)(=O)Oc2cc(C)cc(C)c2)cc1 (centres undefined) | inactive: -0.465% |
| CP(=O)(Nc1cccc(Br)c1)Oc1ccccc1 (centres undefined) | inactive: 1.04% |
| Cc1cc(C)cc(OP(C)(=O)Nc2ccccn2)c1 (centres undefined) | inactive: -7.47% |
| Cc1ccc(C)c(NP(C)(=O)Oc2ccccc2)c1 (centres undefined) | inactive: 3.88% |
| O=C(O)c1cccc(Nc2c([N+](=O)[O-])cc([N+](=O)[O-])cc2[N+](=O)[O-])c1 | inactive: 0.341% |
| CC1=NCCc2c1[nH]c1ccccc21.O=[N+]([O-])c1cc([N+](=O)[O-])c(O)c([N+](=O)[O-])c1 | inactive: -3.3% |
| O=[N+]([O-])c1cc([N+](=O)[O-])c(Nc2cccnc2)c([N+](=O)[O-])c1 | inactive: 10.7% |
| CC(C)(C)c1ccc(OP(C)(=O)Nc2ccc(SC(F)(F)F)cc2)cc1 (centres undefined) | inactive: -11.2% |
| Cc1cccc(C)c1OP(C)(N)=O (centres undefined) | inactive: 1.29% |
| O=[N+]([O-])c1ccc2c(c1)C=Nc1ccccc1O2 | inactive: 1.91% |
| CCOC(=O)c1ccc(NP(C)(=O)Oc2ccccc2)cc1 (centres undefined) | inactive: -0.729% |
| COc1ccccc1OP(C)(=O)Nc1ccc(C)cc1 (centres undefined) | inactive: -3.71% |

| SMILES | inhibition |
| --- | --- |
| Cc1ccc(NP(C)(=O)Oc2ccccc2)c(C)c1 (centres undefined) | inactive: 1.9% |
| COc1ccccc1OP(C)(=O)Nc1cc(Cl)ccc1C (centres undefined) | inactive: -2.04% |
| COc1ccc(OP(C)(=O)Nc2cccc(F)c2)cc1 (centres undefined) | inactive: 15.9% |
| Cc1cc(C)cc(OP(C)(N)=O)c1 (centres undefined) | inactive: 0.782% |
| CCN(CC)CCCOC(=O)C(O)(c1ccccc1)c1ccccc1 | inactive: 5.67% |
| CP(=O)(Nc1ccc(SC(F)(F)F)cc1)Oc1ccc(Cl)cc1 (centres undefined) | inactive: 1.33% |
| Cc1cccc(C)c1OP(C)(=O)Nc1ccc(SC(F)(F)F)cc1 (centres undefined) | inactive: -2.4% |
| CP(=O)(Oc1ccccc1)OC(c1ccccc1)C(F)(F)F (centres undefined) | inactive: 9.42% |
| CCc1ccc(OP(C)(=O)N2CCN(c3ccc([N+](=O)[O-])cc3)CC2)cc1 (centres undefined) | inactive: -1.25% |
| CP(=O)(NC(=O)Nc1ccccc1)Oc1ccccc1 (centres undefined) | inactive: 1.36% |
| Cc1cc(C)cc(OP(C)(=O)Nc2ccc(SC(F)(F)F)cc2)c1 (centres undefined) | inactive: -0.354% |
| CCOP(C)(=S)SCC(=O)NC(C)C(=O)O (centres undefined) | inactive: 6.63% |
| O=[N+]([O-])c1cc([N+](=O)[O-])c(O)c([N+](=O)[O-])c1.c1ccc(Oc2ccncc2)cc1 | inactive: 6.34% |
| CCOC(=O)c1ccc(NP(C)(=O)Oc2ccc(OC)cc2)cc1 (centres undefined) | inactive: 1.77% |
| CP(=O)(Nc1ccccn1)Oc1ccc(Cl)cc1 (centres undefined) | inactive: -3.33% |
| CP(=S)(Nn1cnnc1)Oc1ccccc1 (centres undefined) | inactive: 5.63% |
| COc1ccccc1OP(C)(=O)Nc1ccccc1 (centres undefined) | inactive: -15.6% |
| CP(=O)(Nc1ccccc1Br)Oc1ccccc1 (centres undefined) | inactive: 0.82% |
| Nc1ccc2c(ccc3cccnc32)n1.O=[N+]([O-])c1cc([N+](=O)[O-])c(O)c([N+](=O)[O-])c1 | inactive: -5.55% |
| CP(=O)(OC12CC3CC(CC(C3)C1)C2)OC12CC3CC(CC(C3)C1)C2 | inactive: 1.09% |
| CCOC(=O)c1ccc(NP(C)(=O)Oc2ccc(Cl)cc2)cc1 (centres undefined) | inactive: -5.47% |
| CCN(CC)CC(O)COC(=O)C(O)(c1ccccc1)C1CCCCC1 (centres undefined) | inactive: 1.38% |
